Source: publication PMC5656836, “Distinct activation mechanisms trigger the trypanocidal activity of DNA damaging prodrugs” (Molecular Microbiology, 2017)

Tested on: RH1^RC1 T. brucei
Format: cell-based
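For ratio (fold difference in EC50 between RH1^RC1 and wild type) in this document: resistant clone selected by stepwise exposure to the aziridinyl benzoquinone prodrug in culture.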

| SMILES | Susceptibility of RH1 selected (RH1^RC) lines relative to wild type | ratio (fold difference in EC50 between RH1^RC1 and wild type) |
| --- | --- | --- |
| NC(=O)c1cc(N2CC2)c([N+](=O)[O-])cc1[N+](=O)[O-] [CB1954] | cross‐resistance | – |
| S=P(N1CC1)(N1CC1)N1CC1 [ThioTEPA] | – | 1.4 |
